# High-throughput results (PubChem)
# The list is not random: actives were taken first. Their share in the collection is about 13%.
# Lamin A splicing – changes lamin A minigene splicing in HeLa cells; Potency, µM (series often up to 46.1 µM), usual class: inhibitors; 200,000 compounds, 0.01% hits; HeLa LMNA splicing GFP/RFP minigene ratio, 48 h; active = well fitted inhibition curve with a large enough effect in the signal ratio, with a control signal flat, not every such curve was filed as active; inconclusive = small, poorly fitted or top-dose-only effect, or effect the other way, or a change in a side signal; the % refers to the signal ratio
#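 S3 HeLa stable clones carrying a lamin A-EGFP splicing minigene plus DsRed2 were seeded at 600 cells/well in Opti-MEM with 2% FBS, pin-dosed and incubated 48 h at 37°C. Acumen cytometry (488 nm) gave the GFP/RFP total-intensity ratio.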
# Sfp inh – blocks B. subtilis Sfp PPTase activity; Biochemical Sfp PPTase activity, qHTS; Potency, µM, usual class: inhibitors; 310,000 compounds, 3.5% hits; Q9F4F7; AID 1490;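 note: the enzyme is Sfp with the accession as filed and its product quenches rhodamine fluorescence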
#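 Buffer: 50 mM Hepes-Na pH 7.6, 10 mM MgCl2, 0.01% Nonidet P-40, 0.01% BSA. Enzyme 15 nM, pre-exposed to compound 15 min; substrates then added and fluorescence change tracked over 30 min.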
# JMJD2E inh – blocks human JMJD2E demethylase activity. JMJD2E catalytic domain, FDH-coupled NADH fluorescence (FDH is formaldehyde dehydrogenase). AID 2147. 230,000 compounds, 1.6% hits. Potency, µM (top dose mostly 57.1 µM), hits mostly inhibitors; active = well fitted inhibition curve with a large enough effect, not every such curve was filed as active; inconclusive = small, poorly fitted or top-dose-only effect, or another doubt; inactive = no such curve, though single readings can be large or run the other way; note: nearly all actives have a fitted effect of over 50% in size
# G9a block – G9a (human) methyltransferase inhibition | Q96KQ7 | G9a H3K9 monomethylation, AlphaScreen, 2 h | Potency, µM (top dose mostly 102 µM), usual class: inhibitors | 350,000 compounds, 8.8% hits | AID 504332; note: nearly all actives have a fitted effect of over 75% in size
#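 G9a (20 nM) preincubated 15 min RT with compounds, then 500 nM biotinylated H3K9 peptide and 20 uM SAM added; 2 h RT reaction. Monomethyl-H3K9 product detected by AlphaScreen with anti-H3K9me1 antibody, streptavidin donor and anti-rabbit IgG acceptor beads.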
# miR-21 reporter – miR-21 reporter, rising signal; HeLa miR-21 FLuc reporter, luciferase, 48 h; Potency, µM (titrated, usually from 38.3 µM); AID 2288; 340,000 tested, under 10 active; active = well fitted rising curve with a large enough effect; inconclusive = small, poorly fitted or top-dose-only effect; inactive = no such curve, though single readings can be large or run the other way;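 further: miR-21 action dims this reporter so a rising signal means less miR-21 action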
#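 Using DMEM plus 10% FBS, HeLa miR-21-FLuc cells are incubated with test compounds (final up to about 40uM) for 48 hours; firefly luciferase signal is then imaged following reagent-mediated lysis.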
# ALDH1A1 inh – blocks purified human ALDH1A1 activity. P00352. 220,000 compounds, 7.3% hits. Potency, µM (series often up to 75.3 µM), actives largely listed as inhibitors. Purified ALDH1A1, NADH fluorescence, propionaldehyde substrate; active = well fitted inhibition curve with a large enough effect, not every such curve was filed as active; inconclusive = small, poorly fitted or top-dose-only effect, or another doubt; inactive = no such curve, though single readings can be large or run the other way
# A number is an active result; i = inactive; ? = inconclusive; nt = no result given; [ ] = another dose, or the depositor's remark. Unless noted, calls come from the whole dose curve; as a rule, active = well fitted curve in the direction sought with a large enough effect; inconclusive = small, poorly fitted or top-dose-only effect, or another doubt; inactive = no such curve, though single readings can be large; an effect the other way counts as inactive or inconclusive.
SMILES,Lamin A splicing,Sfp inh,JMJD2E inh,G9a block,miR-21 reporter,ALDH1A1 inh
O=C1CSC(c2ccccc2[N+](=O)[O-])N1c1ccccc1 (stereo not given),?,i,i,i,i,i
O=C(CCn1c(=O)c2ccccc2n(CC(=O)NCCC2=CCCCC2)c1=O)NCc1ccco1,i,?,i,?,i,16µM
COCCCNC(=O)CCn1c(=O)c2ccccc2n(CC(=O)NCCC2=CCCCC2)c1=O,nt,i,i,i,i,?
CC(C(=O)N(C)Cc1cccc(F)c1)N1CCN(S(=O)(=O)c2ccc3c(c2)OCCCO3)CC1 (stereo not given),nt,nt,nt,40µM,nt,nt
CN(Cc1cccc(F)c1)C(=O)CN1CCN(S(=O)(=O)c2ccc3c(c2)OCCCO3)CC1,nt,nt,nt,i,nt,nt
CCCCc1ccc(/C(C)=N/Nc2cc(N3CCOCC3)nc(C)n2)cc1,nt,i,nt,i[0.501 µM],i,nt
c1cncc(CNc2ncncc2-c2ccc3c(c2)OCO3)c1,i,i,?,nt,nt,?
Cc1ccc(SCc2cc(=O)c3c(=O)n(-c4ccccc4)[nH]c3[nH]2)cc1,nt,71µM,?,18µM,i,i
Cc1[nH]n(-c2ccccc2)c(=O)c1Sc1ccc(Cl)cc1,?,i,i,?,i,i
O=c1cc(CSc2ccc(Cl)cc2)[nH]c2[nH]n(-c3ccccc3)c(=O)c12,nt,i,i,40µM,i,nt
COc1ccc(N2CCN(c3oc(/C=C/c4ccc(F)cc4)nc3C#N)CC2)cc1,nt,nt,nt,?,i,nt
O=[N+]([O-])c1ccc(C(O)CN2CCOCC2)cc1 (stereo not given),nt,i,nt,i,i,nt
O=[N+]([O-])c1ccc(S(=O)(=O)CC(CN2CCOCC2)N2CCOCC2)cc1 (stereo not given),nt,?,i,56µM,i,?
O=[N+]([O-])c1ccc(S(=O)(=O)CC(CN2CCCCC2)N2CCCCC2)cc1 (stereo not given),nt,i,i,35µM,i,7.1µM
CCOC(=O)c1ccc(NC(=O)CC2C(=O)N(c3ccccc3)C(=O)N2Cc2ccc(C)cc2)cc1 (stereo not given),nt,nt,nt,i,i,nt
O=C(Cc1ccccc1)Nc1ccc(NC(=O)Cc2ccccc2)c(Cl)c1,nt,i,nt,i,i,nt
O=C(Cc1ccccc1)Nc1ccc(Br)c(Cl)c1,?,?,i,i,i,16µM
Cc1ccc2nc(-c3cccs3)c(Nc3c(C)cccc3C)n2c1,nt,nt,nt,i,i,nt
COc1ccc(CNC(=O)CCCc2nnc3n(C(C)C)c(=O)c4sccc4n23)cc1,nt,nt,nt,i,i,nt
O=C(O)c1ccc2c3c(ncnc13)-c1ccccc1C2=O,?,i,?,1.4µM,i,i
C[C@@H]1CC2OC(=O)[C@@]3(C)C(=O)CC[C@@](C)(C23)[C@@]1(O)CCc1ccoc1 (stereo not given in full),nt,i,nt,i,i,nt
CCOc1ccc(-c2nc(CN(Cc3ccccc3)C[C@@H]3CCC(=O)N3)c(C)o2)cc1,nt,79µM,i,45µM,i,?
NNC(=O)c1cc2c(s1)CCCCCC2,i,i,i,?,i,0.35µM
CN1CCCN(C(=O)c2cc3c(s2)CCCC3)CC1,nt,i,nt,i,i,nt
Cc1cc(C)n(C(=O)c2cc3c(s2)CCCC3)n1,i,i,i,i,i,20µM
SMILES,Lamin A splicing,Sfp inh,JMJD2E inh,G9a block,miR-21 reporter,ALDH1A1 inh
CCCCN(C)CCCNC(=O)C1CCN(S(=O)(=O)CCC)CC1,i,nt,nt,i,i,nt
Cc1ccc(N2C(N)=C(C#N)C(c3ccsc3)C3=C2CC(C)(C)CC3=O)cc1 (stereo not given),i,i,i,i[12.7 µM],i,i
Cc1ccc(N2C(N)=C(C#N)C(c3cc(CN4CCOCC4)cs3)C3=C2CC(C)(C)CC3=O)cc1 (stereo not given),nt,i,i,50µM,i,?
CC12CN(C(=O)c3ccccc3Br)CC(C)(CN(C(=O)c3ccccc3Br)C1)C2=O,nt,i,i,i,i,i
CSc1nnc(-c2cccc(NC(=S)NN)c2)o1,nt,i,i,7.9µM,i,?
CSc1nnc(-c2ccc(NC(N)=S)cc2)o1,i,i,i,i,i,?
Oc1cc(Cc2ccccc2)cnc1CN1CCCCC1,i,i,i,?,i,25µM
c1ccc(Sc2ncccn2)nc1,nt,i,i,32µM,i,i
S=C1NC(c2ccccc2)=CC(c2ccccc2)N1 (stereo not given),i,i,i,32µM,i,0.89µM
O=C1N=C(c2ccccc2)C(c2ccccc2)N1 (stereo not given),i,i,?,?,i,?
Cc1ccn2c(Nc3ccccc3C)c(-c3ccc(N4CCOCC4)cc3)nc2c1,nt,nt,nt,10µM,i,nt
Cc1ccc2nc(-c3ccc(N4CCOCC4)cc3)c(Nc3ccccc3C)n2c1,nt,nt,nt,13µM,i,nt
Cc1ccc(-c2nc3sccn3c2Nc2ccccc2C)cc1,nt,nt,nt,13µM,i,nt
Cc1ccccc1Nc1c(-c2ccc(N3CCOCC3)cc2)nc2ccc(Cl)cn12,nt,nt,nt,?,i,nt
COc1cc(CNC(=O)c2sc3ncccc3c2-n2cccc2)cc(OC)c1OC,i,nt,nt,i,?,nt
O=C(NC(=S)NCCO)c1sc2ccccc2c1Cl,nt,?,i,25µM,i,?
Cc1ccccc1COC(=O)CNC(=O)c1sc2ccccc2c1Cl,nt,nt,nt,i,nt,nt
CC(C)(C)C(=O)NC(=S)NNC(=O)c1sc2ccccc2c1Cl,?,i,i,?,i,?
O=C(CNC(=O)c1sc2ccccc2c1Cl)OCc1ccccc1,nt,i,nt,i,i,nt
CCCOC(=S)NC(=O)c1sc2ccccc2c1Cl,i[0.0737 µM],28µM,i,i[0.501 µM],i,5.6µM
CCOC(=S)NC(=O)c1sc2ccccc2c1Cl,i[0.0737 µM],45µM,i,i[0.501 µM],i,0.35µM
C/C(=N\NC(=O)COc1ccccc1[N+](=O)[O-])c1cccc(NC(=O)c2ccncc2)c1,nt,i,nt,i[12.7 µM],i,nt
COc1ccc(C2=C(C)C(N3CCC(C(=O)Nc4ccccc4F)CC3)=NS2(=O)=O)cc1,?,nt,nt,i,i,nt
O=c1cnc2cnc(N3CCNCC3)nc2n1Cc1cccs1,nt,i,nt,i[12.7 µM],nt,?
COc1ccc(C(=O)N/C(=C\c2cn(S(=O)(=O)N(C)C)c3ccccc23)C(=O)NCCN2CCOCC2)cc1,nt,i,nt,i,i,nt
SMILES,Lamin A splicing,Sfp inh,JMJD2E inh,G9a block,miR-21 reporter,ALDH1A1 inh
Cc1ccc(/C=N/N(C)C2=NS(=O)(=O)c3ccccc32)o1,nt,?,i,40µM,i,i
COc1ccc(Cl)cc1C(=O)Nc1cccc(-c2ccc3nncn3n2)c1,nt,?,14µM,?,i,i
COc1ccccc1NC(=O)c1oc2ccccc2c1NC(=O)c1c(F)cccc1F,nt,nt,nt,i,i,nt
CCOc1ccc(S(=O)(=O)N(CC)CC(=O)N2CCOCC2)cc1C,nt,i,nt,i,i,nt
Cc1ccc2cc3c(N)c(C(=O)N4CCOCC4)sc3nc2c1,i,i,i,28µM,i,i
CCc1ccc2nc3sc(C(=O)N4CCc5ccccc54)c(N)c3cc2c1,i,i,i,50µM,i,i
CCOc1ccc2nc3sc(C(=O)N4CCN(C)CC4)c(N)c3cc2c1,i,i,i,?,i,i
Cc1ccc2nc3sc(C(=O)N4CCOCC4)c(N)c3cc2c1,i,i,i,14µM,i,i
